Measured values as given in ChEMBL document CHEMBL1138170, “Novel lactam NK1 antagonists with anti-emetic activity” (Bioorg Med Chem Lett, 2006).

The chains behind the UniProt entries cited, without tags or fusion partners. Where a name states a change or a piece, a line headed by the entry shows the natural chain unless it says otherwise.
UniProt Q12809: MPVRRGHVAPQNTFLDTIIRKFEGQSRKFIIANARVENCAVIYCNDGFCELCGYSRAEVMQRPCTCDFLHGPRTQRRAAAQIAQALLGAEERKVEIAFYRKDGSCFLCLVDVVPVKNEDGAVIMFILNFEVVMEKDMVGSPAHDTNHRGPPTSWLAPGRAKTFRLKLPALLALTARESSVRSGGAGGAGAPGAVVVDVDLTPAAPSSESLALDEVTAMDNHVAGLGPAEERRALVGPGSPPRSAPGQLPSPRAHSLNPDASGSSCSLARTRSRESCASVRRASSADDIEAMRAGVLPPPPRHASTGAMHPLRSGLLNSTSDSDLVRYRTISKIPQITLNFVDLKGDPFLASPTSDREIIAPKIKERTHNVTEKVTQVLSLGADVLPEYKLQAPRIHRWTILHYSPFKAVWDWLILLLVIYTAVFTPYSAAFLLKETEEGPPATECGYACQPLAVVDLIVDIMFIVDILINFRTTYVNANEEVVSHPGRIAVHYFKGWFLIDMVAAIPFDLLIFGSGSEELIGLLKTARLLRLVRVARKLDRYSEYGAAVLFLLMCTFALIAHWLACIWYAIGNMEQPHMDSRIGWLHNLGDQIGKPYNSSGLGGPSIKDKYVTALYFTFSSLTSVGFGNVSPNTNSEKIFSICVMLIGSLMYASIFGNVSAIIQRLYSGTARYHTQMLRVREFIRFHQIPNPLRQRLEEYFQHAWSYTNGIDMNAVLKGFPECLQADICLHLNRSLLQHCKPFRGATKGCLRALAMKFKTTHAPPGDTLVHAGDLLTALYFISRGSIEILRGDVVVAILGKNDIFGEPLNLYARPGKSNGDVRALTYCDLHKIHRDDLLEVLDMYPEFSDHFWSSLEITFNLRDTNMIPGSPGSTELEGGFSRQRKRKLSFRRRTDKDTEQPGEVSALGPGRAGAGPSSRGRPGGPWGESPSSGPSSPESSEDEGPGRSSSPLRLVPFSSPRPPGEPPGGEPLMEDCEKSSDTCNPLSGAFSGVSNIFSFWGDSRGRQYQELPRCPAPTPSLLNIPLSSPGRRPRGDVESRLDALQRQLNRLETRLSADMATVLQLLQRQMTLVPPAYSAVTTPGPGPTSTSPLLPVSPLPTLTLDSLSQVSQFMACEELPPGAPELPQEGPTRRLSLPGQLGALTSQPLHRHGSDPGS

Molecular target: Voltage-gated inwardly rectifying potassium channel KCNH2 (Homo sapiens, UniProt Q12809)
Test: Displacement of labelled MK-499 from cloned channel hERG expressed in HEK cells
Type: cell-based, HEK293

`CC(C(=O)N[C@]1(c2ccccc2)CC[C@@H](N2CCC3(CCOC3)CC2)CC1)c1cc(C(F)(F)F)cc(C(F)(F)F)c1` (stereo partly specified) showed a Ki of 787 nM.
